How the values were obtained:
CETP [1] = biological target: T1, CETP (Homo sapiens, UniProt P11597); test: Assay of CETP Inhibition in Human Plasma; format: biochemical; design: Blood was obtained from healthy volunteers; from tissue; host or cells: human EDTA plasma pool from healthy volunteers; conditions: human EDTA plasma pool, [3H]CE-HDL, 37° C., 4 hours
T1 sequence (P11597 18-493): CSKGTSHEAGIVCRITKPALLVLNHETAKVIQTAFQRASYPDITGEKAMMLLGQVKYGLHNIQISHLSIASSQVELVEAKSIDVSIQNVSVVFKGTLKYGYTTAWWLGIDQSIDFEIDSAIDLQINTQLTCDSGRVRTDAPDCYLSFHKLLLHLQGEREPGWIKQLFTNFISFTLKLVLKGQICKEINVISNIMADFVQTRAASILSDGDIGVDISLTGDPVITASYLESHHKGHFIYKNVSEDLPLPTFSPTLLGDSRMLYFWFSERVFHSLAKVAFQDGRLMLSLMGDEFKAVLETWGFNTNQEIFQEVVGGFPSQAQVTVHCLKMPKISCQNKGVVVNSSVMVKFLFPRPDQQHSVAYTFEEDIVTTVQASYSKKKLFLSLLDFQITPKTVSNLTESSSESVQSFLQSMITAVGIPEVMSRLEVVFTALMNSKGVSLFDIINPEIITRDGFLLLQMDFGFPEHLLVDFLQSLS
Experimental: Assay of CETP Inhibition in Human Plasma
Blood was obtained from healthy volunteers, recruited from the personnel of Monsanto Company, Saint Louis, Mo. Blood was collected in tubes containing EDTA (EDTA plasma pool). The EDTA human plasma pool, previously stored at −20° C., was thawed at room temperature and centrifuged for 5 minutes to remove any particulate matter. […] Equal volumes (396 μL) of the plasma containing the [^3H]CE-HDL were added by pipette into micro tubes (Titertube®, Bio-Rad laboratories, Hercules, Calif.). Inhibitor compounds, dissolved as 20-50 mM stock solutions in DMSO, were serially diluted in DMSO (or an alternative solvent in some cases, such as dimethylformamide or ethanol). Four μL of each of the serial dilutions of inhibitor compounds or DMSO alone were then added to each of the tubes containing plasma (396 μL). After mixing, triplicate aliquots (100 μL) from each plasma tube were then transferred to wells of 96-well round-bottomed polystyrene microtiter plates (Corning, Corning, N.Y.). Plates were sealed with plastic film and incubated at 37° C. for 4 hours. “Test” samples contained plasma with dilutions of inhibitor compounds. “Control” samples contained plasma with DMSO diluted to the same concentration as the test samples, but without inhibitor. “Blank” samples were prepared as “control” samples, but were left in the micro tubes at 4° C. for the 4 hour incubation and were then added to the microtiter wells at the end of the incubation period. VLDL and LDL were precipitated by the addition of 10 μL of precipitating reagent (1% (w/v) dextran sulfate (Dextralip50)/0.5 M magnesium chloride, pH 7.4) to all wells. The wells were mixed on a plate mixer and then incubated at ambient temperature for 10 min. The plates were then centrifuged at 1000×g for 30 min at 10° C. The supernatants (50 μL) from each well were then transferred to Picoplate™ 96 plate wells (Packard, Meriden, Conn.) containing Microscint™-40 (Packard, Meriden, Conn.). The plates were heat-sealed (TopSeal™-P, Packard, Meriden, Conn.) according to the manufacturer's directions and mixed for 30 min. Radioactivity was measured on a microplate scintillation counter (TopCount, Packard, Meriden, Conn.). The maximum percentage transfer in the control wells (% transfer) was determined using the following equation:
[formula] The percentage of transfer relative to the control (% control) was determined in the wells containing inhibitor compounds was determined as follows:
[formula] IC50 values were then calculated from plots of % control versus concentration of inhibitor compound.

CETP [2] = biological target: T1, CETP; test: Assay of CETP Inhibition Using Purified Components (Reconstituted Buffer Assay); format: biochemical; design: made in house; host or cells: CHO cells (serum-free conditioned medium)
Experimental: Assay of CETP Inhibition Using Purified Components (Reconstituted Buffer Assay)
The ability of compounds to inhibit CETP activity was assessed using an in vitro assay that measured the rate of transfer of radiolabeled cholesteryl ester ([^3H]CE) from HDL donor particles to LDL acceptor particles. Details of the assay are provided by Glenn, K. C. et al. (Glenn and Melton, “Quantification of Cholesteryl Ester Transfer Protein (CETP): A) CETP Activity and B) Immunochemical Assay of CETP Protein,” Meth. […] To measure CETP activity, [^3H]CE-labeled-HDL, LDL, CETP and assay buffer (50 mM tris(hydroxymethyl)aminomethane, pH 7.4; 150 mM sodium chloride; 2 mM ethylenediamine-tetraacetic acid (EDTA); 1% bovine serum albumin) were incubated in a final volume of 200 μL, for 2 hours at 37° C. in 96 well plates. […] The inhibitors were then diluted 1:1 with CETP in assay buffer, and then 25 μL of that solution was mixed with 175 μL of lipoprotein pool for assay. Following incubation, LDL was differentially precipitated by the addition of 50 μL of 1% (w/v) dextan sulfate/0.5 M magnesium chloride, mixed by vortex, and incubated at room temperature for 10 minutes. A potion of the solution (200 μL) was transferred to a filter plate (Millipore). After filtration, the radioactivity present in the precipitated LDL was measured by liquid scintillation counting.
This value was defined as the IC50.

| SMILES | IC50 (CETP [1]) | IC50 (CETP [2]) |
| --- | --- | --- |
| OC(CN(Cc1cccc(OC(F)(F)C(F)F)c1)c1cccc(Oc2ccccc2)c1)C(F)(F)F [Example 1, (2R,S)-3-[(3-phenoxyphenyl)[[3-(1,1,2,2-tetrafluoroethoxy)phenyl]-methyl]amino]-1,1,1-trifluoro-2-propanol] | 5600 nM | – |
| O[C@H](CN(Cc1cccc(OC(F)(F)C(F)F)c1)c1cccc(Oc2ccccc2)c1)C(F)(F)F [Example 2, (2R)-3-[(3-phenoxyphenyl)[[3-(1,1,2,2-tetrafluoroethoxy)phenyl]methyl]amino]-1,1,1-trifluoro-2-propanol] | 650 nM | 14 nM |
| O[C@@H](CN(Cc1cccc(OC(F)(F)C(F)F)c1)c1cccc(Oc2ccccc2)c1)C(F)(F)F [Example 3, (2S)-3-[(3-phenoxyphenyl)[[3-(1,1,2,2-tetrafluoroethoxy)-phenyl]methyl]amino]-1,1,1-trifluoro-2-propanol] | 20000 nM | 760 nM |
| CCc1cc(Oc2cccc(N(Cc3cccc(OC(F)(F)C(F)F)c3)C[C@@H](O)C(F)(F)F)c2)ccc1Cl [Example 8, (2R)-3-[[3-(4-chloro-3-ethylphenoxy)phenyl][[3-(1,1,2,2-tetrafluoro-ethoxy)phenyl]methyl]amino]-1,1,1-trifluoro-2-propanol] | 49 nM | 0.8 nM |

Second part, the molecule after the results:

| IC50 (CETP [1]) | IC50 (CETP [2]) | SMILES |
| --- | --- | --- |
| 140 nM | 27 nM | O[C@H](CN(Cc1cccc(OC(F)(F)C(F)F)c1)c1cccc(OCc2cccc(OC(F)(F)F)c2)c1)C(F)(F)F [Example 22] |
| 190 nM | 4 nM | O[C@H](CN(Cc1cccc(OC(F)(F)C(F)F)c1)c1cccc(Oc2cccc(OC(F)(F)F)c2)c1)C(F)(F)F [Example 19, (2R)-3-[[3-(3-trifluoromethoxyphenoxy)phenyl][[3-(1,1,2,2-tetrafluoroethoxy)phenyl]methyl]amino]-1,1,1-trifluoro-2-propanol] |
| 72 nM | 1 nM | CCc1cccc(Oc2cccc(N(Cc3cccc(OC(F)(F)C(F)F)c3)C[C@@H](O)C(F)(F)F)c2)c1 [Example 11] |
| 110 nM | 12 nM | CC(C)c1cccc(Oc2cccc(N(Cc3cccc(OC(F)(F)C(F)F)c3)C[C@@H](O)C(F)(F)F)c2)c1 [Example 10] |
